Bioassay records (PubChem BioAssay)
The list is not random: actives were taken first. Their share in the collection is about 0.46%.
GIV-Gai inh – inhibitors of GIV GBA-motif binding to rat Galpha-i3; P08753; Galpha-i3/FITC-GIV peptide fluorescence polarization, 90 min; hits give low values; scaled: aluminum fluoride 0%, vehicle 100%; percent of control (FP), % (test concentration not listed); actives 0.42% (n = 210,000); AID 1224905;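 active = replicate mean at 85% of control or lower, very high polarization wells dropped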;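 also: wells of about 15 µL received 100 nL stock; the first replicate is given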
HCMV NEC inh – disrupts HCMV UL50-UL53 complex binding. HTRF UL50-UL53 interaction, normalized percent inhibition. inhibition, % (test concentration not listed). 0.15% of 190,000 active; in the data active = inhibition above about 27%, passing the limit was not always enough
* = called active by the depositor; / = no result; ! = repeats disagree.

Molecule: O=C1NC(=Nc2cccc(C(=O)O)c2)S/C1=C/c1ccc(-c2ccc(C(=O)O)cc2)o1
  GIV-Gai inh = 229 | HCMV NEC inh = /

Molecule: CC(C)(C)N=c1scc(-c2ccccc2)n1-c1ccccc1
  GIV-Gai inh = / | HCMV NEC inh = 12

Molecule: Cc1ccc2nc(-c3ccc(NC(=O)COCC(=O)O)cc3)sc2c1
  GIV-Gai inh = 96 | HCMV NEC inh = -33

Molecule: COC(=O)c1ccc(Oc2ccc(Cl)cc2)nc1
  GIV-Gai inh = 101 | HCMV NEC inh = -24

Molecule: CCOC(=O)N1CCC(NC(=O)C2CCCN(c3ncnc4c3sc3cccc(F)c34)C2)CC1 (stereo not given)
  GIV-Gai inh = 103 | HCMV NEC inh = /

Molecule: CCOC(=O)N1CCC(NC(=O)C2CCN(c3ncnc4c3sc3cccc(F)c34)CC2)CC1
  GIV-Gai inh = 101 | HCMV NEC inh = 53*

Molecule: CCC(=O)Nc1cccc(-c2noc(C3CCCN(C(=O)CNC(=O)Cc4ccccc4)C3)n2)c1 (stereo not given)
  GIV-Gai inh = 106 | HCMV NEC inh = /

Molecule: CCCC1C(C#N)=C(N)SC(N)=C1C#N
  GIV-Gai inh = / | HCMV NEC inh = -11

Molecule: CC1C(C#N)=C(N)SC(N)=C1C#N
  GIV-Gai inh = -20* | HCMV NEC inh = 30

Molecule: Cc1cccc(-n2c(=O)c3[nH]c4ccccc4sc=3c2=O)c1
  GIV-Gai inh = 109 | HCMV NEC inh = -28

Molecule: O=C(NC1CCN(Cc2ccccc2)CC1)C1CCN(c2ccc(-c3ccccc3)nn2)CC1
  GIV-Gai inh = 106 | HCMV NEC inh = 29*

Molecule: O=C(NC1CCCC1)C1CCN(c2ccc(-c3ccccc3)nn2)CC1
  GIV-Gai inh = 105 | HCMV NEC inh = -25

Molecule: Cn1cc(C(c2ccccc2)c2ccc(Cl)s2)c2ccccc21 (stereo not given)
  GIV-Gai inh = 105 | HCMV NEC inh = -19

Molecule: O=C(CCN1N=C(c2ccccc2)CCC1=O)NCc1ccccc1
  GIV-Gai inh = 109 | HCMV NEC inh = /

Molecule: Nc1c(C(=O)Nc2ccc(F)cc2)sc2nc(-c3cccs3)cc(C(F)(F)F)c12
  GIV-Gai inh = -12* | HCMV NEC inh = -48

Molecule: COc1ccc(NC(=O)c2sc3nc(-c4ccc(OC)cc4)cc(C(F)(F)F)c3c2N)cc1
  GIV-Gai inh = 96 | HCMV NEC inh = -41

Molecule: O=C(O)CN1C(=O)/C(=C\c2cc([N+](=O)[O-])cc(Br)c2O)SC1=S
  GIV-Gai inh = -59* | HCMV NEC inh = -78

Molecule: O=C1/C(=C/c2cc([N+](=O)[O-])cc(Br)c2O)SC(=S)N1c1ccc([N+](=O)[O-])cc1
  GIV-Gai inh = 106 | HCMV NEC inh = -19

Molecule: CCOC(=O)N1CCC(NC(=O)CSCc2cnn(-c3ccccc3)c2-n2cccc2)CC1
  GIV-Gai inh = 101 | HCMV NEC inh = 3

Molecule: CS(=O)CCNC(=O)Nc1ccc(Cl)c(Cl)c1 (stereo not given)
  GIV-Gai inh = 107 | HCMV NEC inh = /

Molecule: CNC(=O)CNC(=O)Nc1ccc(Cl)c(Cl)c1
  GIV-Gai inh = / | HCMV NEC inh = 44*

Molecule: CCC(=O)Nc1c(C#N)c2nc3ccccc3nc2n1CCc1ccccc1
  GIV-Gai inh = / | HCMV NEC inh = -40

Molecule: O=c1oc2ccccc2c(O)c1/C=N/c1ncccn1
  GIV-Gai inh = / | HCMV NEC inh = -18

Molecule: O=S(=O)(/N=C\c1cc(Br)ccc1O)c1cccs1
  GIV-Gai inh = / | HCMV NEC inh = 3

Molecule: Oc1ccc2ccccc2c1C=NCc1ccccc1
  GIV-Gai inh = 103 | HCMV NEC inh = 60*

Molecule: O/N=C/c1c(O)ccc2ccccc12
  GIV-Gai inh = 98 | HCMV NEC inh = -23

Molecule: CN/N=C/c1c(O)ccc2ccccc12
  GIV-Gai inh = / | HCMV NEC inh = 49*

Molecule: O=S(=O)(/N=C/c1c(O)ccc2ccccc12)c1cccs1
  GIV-Gai inh = / | HCMV NEC inh = 98*

Molecule: O=CN/N=C/c1c(O)ccc2ccccc12
  GIV-Gai inh = / | HCMV NEC inh = -17

Molecule: Oc1ccc2ccccc2c1/C=N/c1ncccn1
  GIV-Gai inh = / | HCMV NEC inh = 99*

Molecule: O=C(NCc1cccnc1)C1CCC(c2ccc(Cl)cc2)CC1 (stereo not given)
  GIV-Gai inh = 99 | HCMV NEC inh = -25

Molecule: O=C(Cc1ccc(F)cc1)Nc1nnc2n1CCS2
  GIV-Gai inh = 101 | HCMV NEC inh = /

Molecule: CCCCN(CC)S(=O)(=O)c1ccc2[nH]c(=O)cc(C(=O)NCCN3CCN(c4ccccc4F)CC3)c2c1
  GIV-Gai inh = 98 | HCMV NEC inh = -26

Molecule: CCc1ccccc1NC(=O)C1CC(c2ccccc2OC)=NO1 (stereo not given)
  GIV-Gai inh = 101 | HCMV NEC inh = -11

Molecule: O=C(Nc1cccc(-c2cn3ccccc3n2)c1)c1cc2cc(Br)ccc2oc1=O
  GIV-Gai inh = 105 | HCMV NEC inh = 3

Molecule: CC(C(=O)Nc1cccc(N=Cc2c(O)ccc3ccccc23)c1)c1ccccc1 (stereo not given)
  GIV-Gai inh = / | HCMV NEC inh = -7

Molecule: CC(NC(=O)c1ccccc1N=Cc1c(O)ccc2ccccc12)c1ccccc1 (stereo not given)
  GIV-Gai inh = / | HCMV NEC inh = 68*!

Molecule: N#Cc1ccc(OC(=O)c2ccc(Br)o2)cc1
  GIV-Gai inh = / | HCMV NEC inh = -7

Molecule: Cc1n[nH]c(C)c1N1C(=O)c2cccc3c(N4CCCCC4)ccc(c23)C1=O
  GIV-Gai inh = -6.8* | HCMV NEC inh = -116

Molecule: O=C1c2cccc3c(N4CCOCC4)ccc(c23)C(=O)N1c1ccccc1
  GIV-Gai inh = 94 | HCMV NEC inh = -91

Molecule: Cc1cc2nc(COc3ccccc3)cc(=O)n2o1
  GIV-Gai inh = 99 | HCMV NEC inh = -5

Molecule: Cc1cc2nc(CN3CCCc4ccccc43)cc(=O)n2o1
  GIV-Gai inh = 75* | HCMV NEC inh = -60

Molecule: COc1ccc(C2C(=O)N(C3CCCCCC3)CC(=O)N2C2CCCCC2)cc1 (stereo not given)
  GIV-Gai inh = 104 | HCMV NEC inh = -8

Molecule: CN(C)c1ccc(/C=C/C(=O)/C=C/c2ccc3c(c2)OCO3)cc1
  GIV-Gai inh = -64* | HCMV NEC inh = /

Molecule: COC(=O)/C=C/c1ccc2c(c1)OCO2
  GIV-Gai inh = / | HCMV NEC inh = -17

Molecule: CN(C)c1ccc(/C=C/C(=O)/C=C/c2ccco2)cc1
  GIV-Gai inh = 6.8* | HCMV NEC inh = 13

Molecule: O=C(O)/C=C/c1ccco1
  GIV-Gai inh = 101 | HCMV NEC inh = -1

Molecule: FC(F)(F)COc1nc(N2CCOCC2)nc(N(c2ccccc2)c2ccccc2)n1
  GIV-Gai inh = 99 | HCMV NEC inh = -2

Molecule: COc1cccc(/C(O)=C/c2nc3ccc(C(=O)N4CCN(C5CCCCC5)CC4)cc3[nH]c2=O)c1
  GIV-Gai inh = 110 | HCMV NEC inh = -74

Molecule: COc1cccc(/C(O)=C/c2nc3ccc(C(=O)N4CCN(c5ccccn5)CC4)cc3[nH]c2=O)c1
  GIV-Gai inh = 55* | HCMV NEC inh = -44

Molecule: CC1(C(=O)NC2CCCCC2)Cn2c(nc3ccccc32)C(=O)N1Cc1ccccc1 (stereo not given)
  GIV-Gai inh = 103 | HCMV NEC inh = -14

Molecule: CC(C)(C)C(=O)[C@@H]1[C@@H](c2ccsc2)C(C#N)(C#N)[C@H]2C=Cc3ccccc3N12
  GIV-Gai inh = 123 | HCMV NEC inh = /

Molecule: CC(C)(C)C(=O)[C@@H]1[C@@H](c2cccs2)C(C#N)(C#N)[C@H]2C=Cc3ccccc3N12
  GIV-Gai inh = -45* | HCMV NEC inh = /

Molecule: Cc1cc(C)c(NC(=O)CSc2nc3nc(C)cc(C)n3n2)c(C)c1
  GIV-Gai inh = 107 | HCMV NEC inh = 1

Molecule: Cc1ccc(C(=O)OC2=C(c3ccccc3)C(=O)c3ccccc3C2=O)cc1
  GIV-Gai inh = 102 | HCMV NEC inh = /

Molecule: Cc1ccc(C(=O)OC2=CC(=O)c3ccccc3C2=O)cc1
  GIV-Gai inh = 84* | HCMV NEC inh = 36

Molecule: CCCCOc1ccc(C2CC(=O)Nc3c2c(C)nn3-c2ccc3nnc(C)n3n2)cc1OCC (stereo not given)
  GIV-Gai inh = 75* | HCMV NEC inh = /

Molecule: CCCOc1ccc(C2CC(=O)Nc3c2c(C)nn3-c2ccc3nnc(C)n3n2)cc1OCC (stereo not given)
  GIV-Gai inh = 105 | HCMV NEC inh = /

Molecule: CN1c2cc(Cl)ccc2-c2nc(SCC(=O)Nc3cc(F)ccc3F)ncc2S1(=O)=O
  GIV-Gai inh = 110 | HCMV NEC inh = 78*

Molecule: Cc1ccc(NC(=O)CSc2ncc3c(n2)-c2ccc(Cl)cc2N(C)S3(=O)=O)cc1F
  GIV-Gai inh = 103 | HCMV NEC inh = /

5 successive compounds from above:
Molecule: CC1(C(=O)NC2CCCCC2)Cn2c(nc3ccccc32)C(=O)N1Cc1ccccc1 (stereo not given)
  GIV-Gai inh = 103 | HCMV NEC inh = -14

Molecule: CC(C)(C)C(=O)[C@@H]1[C@@H](c2ccsc2)C(C#N)(C#N)[C@H]2C=Cc3ccccc3N12
  GIV-Gai inh = 123 | HCMV NEC inh = /

Molecule: CC(C)(C)C(=O)[C@@H]1[C@@H](c2cccs2)C(C#N)(C#N)[C@H]2C=Cc3ccccc3N12
  GIV-Gai inh = -45* | HCMV NEC inh = /

Molecule: Cc1cc(C)c(NC(=O)CSc2nc3nc(C)cc(C)n3n2)c(C)c1
  GIV-Gai inh = 107 | HCMV NEC inh = 1

Molecule: Cc1ccc(C(=O)OC2=C(c3ccccc3)C(=O)c3ccccc3C2=O)cc1
  GIV-Gai inh = 102 | HCMV NEC inh = /

Further structures follow.
Molecule: CN1c2cc(Cl)ccc2-c2nc(SCC(=O)Nc3nccs3)ncc2S1(=O)=O
  GIV-Gai inh = 107 | HCMV NEC inh = 36*

Molecule: CN1c2cc(Cl)ccc2-c2nc(SCC(=O)Nc3ccc(F)cc3F)ncc2S1(=O)=O
  GIV-Gai inh = 104 | HCMV NEC inh = /

Molecule: COC(=O)C1=C(C(=O)OC)SC(=C2C(=S)C(C)(C)N(C(C)=O)c3c(C)cc(C)cc32)S1
  GIV-Gai inh = 108 | HCMV NEC inh = /

Molecule: Cn1nnnc1SCC(=O)Nc1nn(-c2ccccc2)nc1C(N)=O
  GIV-Gai inh = 102 | HCMV NEC inh = 6

Molecule: Cc1ccc(/C=C2/SC(=S)N(c3ccc(S(N)(=O)=O)cc3)C2=O)o1
  GIV-Gai inh = / | HCMV NEC inh = -14

Molecule: Cc1ccc(/C=C2\SC(=O)NC2=S)o1
  GIV-Gai inh = 46* | HCMV NEC inh = -55

Molecule: COc1cc(/C=C(\C#N)C(=O)c2ccc(O)c(O)c2)cc(I)c1O
  GIV-Gai inh = -31* | HCMV NEC inh = -122

Molecule: COc1cc(/C=C(\C#N)C(=O)C(C)(C)C)ccc1O
  GIV-Gai inh = / | HCMV NEC inh = -73

Molecule: CCN1CCN(Cc2coc3ccccc3c2=O)CC1
  GIV-Gai inh = 103 | HCMV NEC inh = -5

Molecule: COc1ccc(S(=O)(=O)N2Cc3ccccc3CC2C(=O)Nc2nccs2)cc1OC (stereo not given)
  GIV-Gai inh = 108 | HCMV NEC inh = -2

Molecule: COC(=O)CN1C(=O)C(=Cc2ccc(N(C)C)cc2)SC1=S
  GIV-Gai inh = -42* | HCMV NEC inh = /

Molecule: COC(=O)CN1C(=O)/C(=C\c2ccc(O)cc2)SC1=S
  GIV-Gai inh = -42* | HCMV NEC inh = /

Molecule: COC(=O)CN1C(=O)S/C(=C\c2ccccc2)C1=O
  GIV-Gai inh = 103 | HCMV NEC inh = -48
